Data as given in patent US20080138437A1, “Antitumor Agent” (priority 2004, published 2008).

Experiment: in vivo
Conditions: male, C57BL/6, mouse, po
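Note: mice given a single dose and followed for 14 days, with deaths tallied, LD50 derived from the doses given and the resulting death counts.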

Question: Which LD50 does the source give for `CC(C)COC(=O)OCN1C(=O)CN(CCN2CC(=O)N(COC(=O)OCC(C)C)C(=O)C2)CC1=O` [Sobuzoxane] here?
Answer: 853 mg/kg
